One experiment has as its target T1, hSTING^H232 (aa 140-379) (Homo sapiens, UniProt Q86WV6).
T1 construct: His6-SUMO (N, cleaved yes); made in house; host or cells: E. coli BL21 (DE3) RIL
Kind of experiment: ITC binding, hSTING^H232. Particulars: Protein: 0.2 mM; Ligands: 1 mM; 30 mM HEPES, 100 mM NaCl, pH 7.5; 25° C.

Amino acid sequences for entries named in this document (tags omitted). Residues count along the entry.
UniProt Q86WV6, 140-379: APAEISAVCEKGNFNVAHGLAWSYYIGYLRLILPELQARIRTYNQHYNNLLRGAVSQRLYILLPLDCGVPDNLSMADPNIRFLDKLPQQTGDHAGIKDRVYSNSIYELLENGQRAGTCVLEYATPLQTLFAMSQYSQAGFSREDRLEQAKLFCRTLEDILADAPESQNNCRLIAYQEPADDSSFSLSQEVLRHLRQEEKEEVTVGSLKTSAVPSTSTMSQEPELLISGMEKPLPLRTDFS
UniProt Q86WV6, whole entry S162A: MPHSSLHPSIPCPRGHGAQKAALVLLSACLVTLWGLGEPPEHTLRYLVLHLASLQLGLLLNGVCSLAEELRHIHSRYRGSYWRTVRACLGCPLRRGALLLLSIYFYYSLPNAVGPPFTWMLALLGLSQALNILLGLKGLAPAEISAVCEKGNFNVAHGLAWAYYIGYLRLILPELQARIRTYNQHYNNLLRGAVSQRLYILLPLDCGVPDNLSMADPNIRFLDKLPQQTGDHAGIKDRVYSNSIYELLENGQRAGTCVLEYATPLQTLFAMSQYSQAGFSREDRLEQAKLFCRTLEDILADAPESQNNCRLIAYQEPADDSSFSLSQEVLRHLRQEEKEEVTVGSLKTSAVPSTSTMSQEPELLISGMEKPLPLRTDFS
UniProt Q86WV6, whole entry T263A: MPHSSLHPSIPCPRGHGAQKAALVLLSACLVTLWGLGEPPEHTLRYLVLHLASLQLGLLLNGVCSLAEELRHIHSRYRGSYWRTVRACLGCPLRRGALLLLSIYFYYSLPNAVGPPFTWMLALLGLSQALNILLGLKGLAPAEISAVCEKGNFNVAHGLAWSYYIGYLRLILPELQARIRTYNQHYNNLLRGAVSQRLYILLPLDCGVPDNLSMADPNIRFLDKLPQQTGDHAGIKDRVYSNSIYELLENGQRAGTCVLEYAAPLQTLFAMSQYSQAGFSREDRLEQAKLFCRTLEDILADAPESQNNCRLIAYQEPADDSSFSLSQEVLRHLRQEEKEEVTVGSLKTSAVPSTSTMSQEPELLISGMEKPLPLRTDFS
UniProt Q86WV6, whole entry T267A: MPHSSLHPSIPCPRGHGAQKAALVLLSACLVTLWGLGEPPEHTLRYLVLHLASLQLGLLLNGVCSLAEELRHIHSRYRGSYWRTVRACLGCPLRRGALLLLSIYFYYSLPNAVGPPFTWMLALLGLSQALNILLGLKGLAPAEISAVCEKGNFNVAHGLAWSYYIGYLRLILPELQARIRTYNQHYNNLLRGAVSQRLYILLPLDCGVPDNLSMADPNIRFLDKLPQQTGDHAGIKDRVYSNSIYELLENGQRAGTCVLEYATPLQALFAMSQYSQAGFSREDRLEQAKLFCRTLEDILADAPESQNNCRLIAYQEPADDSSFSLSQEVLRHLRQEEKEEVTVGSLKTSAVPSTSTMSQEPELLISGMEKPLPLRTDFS
UniProt Q86WV6, 140-379 H232R: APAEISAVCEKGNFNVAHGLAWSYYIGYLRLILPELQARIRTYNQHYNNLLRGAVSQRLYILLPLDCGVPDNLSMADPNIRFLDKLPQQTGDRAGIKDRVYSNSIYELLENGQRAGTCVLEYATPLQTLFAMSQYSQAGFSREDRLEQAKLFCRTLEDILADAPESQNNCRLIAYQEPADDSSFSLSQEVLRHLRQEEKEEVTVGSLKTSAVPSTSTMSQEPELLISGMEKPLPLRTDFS

A further experiment concerns the target T2, hSTING^H232 (Homo sapiens, UniProt Q86WV6).
T2 construct: Full-length hSTING (wt and substitutions) and mSTING (wt) constructs were used for this cellular assay; expressed in transfected cells; host or cells: HEK293T
Kind of experiment: IFN-β luciferase reporter, HEK293T cells with hSTING^H232. The format is cell-based. Particulars: digitonin permeabilization (30 min), 12 h.

The target of experiment [1] is T3, hSTING S162A (hSTING^H232 and hSTING^R232 background) (Homo sapiens, UniProt Q86WV6, S162A).
T3 construct: Full-length hSTING (wt and substitutions) and mSTING (wt) constructs were used for this cellular assay; expressed in transfected cells; host or cells: HEK293T
The format is cell-based. As to conditions: digitonin permeabilization.

The target of the next experiment is hSTING^H232/T263A (Homo sapiens, UniProt Q86WV6, T263A). Particulars: digitonin permeabilization.
For the next experiment, the target named is hSTING^H232 T267A (Homo sapiens, UniProt Q86WV6, T267A). As to conditions: digitonin permeabilization.
In another experiment the target is hSTING^R232 (aa 140-379) (Homo sapiens, UniProt Q86WV6, H232R). Kind of experiment: ITC binding, hSTING^R232 (wt hSTING).
Setting [2] is: Protein: 0.2 mM, Ligands: 0.9 mM, pH 7.5, 25° C.

Consider `Nc1nc2c(ncn2[C@@H]2O[C@@H]3COP(=O)(O)O[C@H]4[C@@H](O)[C@H](n5cnc6c(N)ncnc65)O[C@@H]4COP(=O)(O)O[C@H]3[C@H]2O)c(=O)[nH]1`, for which, on hSTING^H232 (aa 140-379), the TΔS is -3.61 kcal/mol, the ΔG is -7.01 kcal/mol and the ΔH was -10.62 kcal/mol. The “IFN luciferase reporter dose-response to cGAMP isomers” value on hSTING^H232 is “lesser response”. Further, in experiment [1], the “IFN luciferase reporter response to cGAMP isomers” value is “weaker response”. Also, the “IFN luciferase reporter response compared to 2′,5′ linkage isomers” value at hSTING^H232/T263A is on record as “gain in sensitivity”. For the same compound, the “IFN luciferase reporter response to cGAMP isomers” value on hSTING^H232 T267A is “weaker response”. For the same compound, the “binding affinity increase for STING variants with R232 compared to H232” value at hSTING^R232 (aa 140-379) (ITC) is listed as “about 4 fold”. In addition, on hSTING^R232 (aa 140-379) (setting [2]), the TΔS result is given as “+6.86 Kcal/mol”, the ΔG is -7.99 kcal/mol and the ΔH is -1.13 kcal/mol.

The values are drawn from US10176292B2, “STING crystals and modulators” (MEMORIAL SLOAN-KETTERING CANCER CENTER, priority 2013, dated 2019).
